Measurements: article PMC6019071
Read-outs that look alike come from different tables or passages of the source.

Target: core CoREST complex LSD1/HDAC1/CoREST1 (LHC) (UniProt O60341)
Test: other; inhibition of LHC peptide deacetylation

Substance | IC50 | IC50 (natural protein)
H3K9Hd containing nucleosome (146 bp mononucleosome with semisynthetic H3K4me2K9Hd) | 630 nM | 
H3K14Hd containing nucleosome (146 bp mononucleosome with semisynthetic H3K4me2K14Hd) | 390 nM | 
semisynthetic histone H3 H3K4me2K14Hd (from UniProt P84233 2-136) |  | 22 nM
